System: HEp-2 cells
Experiment: Cytotoxicity assay, neutral red uptake
Type: cell-based
Settings: HEp-2 monolayer, 48 h, 37 °C, OD 540 nm, Table 5
Procedure: Different concentrations of the peptides (with 0.1 mL/well), properly diluted in a maintain medium were used for the inoculation of monolayer cells in 96-well plates (Costar®, Corning Inc., Kennebunk, ME, USA). A humidified atmosphere at 37 °C and 5% CO2 for 48 h was used for the incubation of the cells. The following procedures were used after a microscopic evaluation: (1) The maintenance medium containing the test compound was removed and the cells were washed; (2) 0.1 mL of maintenance medium supplemented with 0.005% neutral red dye was added to each well; (3) the cells were incubated for a long time (3 h) at 37 °C. […] The optical density (OD) of each well was read at 540 nm using a microplate reader (Biotek Organon, West Chester, PA, USA).

NC(=O)c1ncn([C@@H]2O[C@H](CO)[C@@H](O)[C@H]2O)n1 [Ribavirin]
Cytotoxicity CC50 in HEp-2 Cells: 2103 µM/mL

Reference: paper PMC9332204, “Study of Novel Peptides for Antimicrobial Protection in Solution and on Cotton Fabric” (Molecules, 2022)
